Source: paper PMC12749252 (Nature Communications, 2025)

Sequences of proteins named here, by UniProt entry; tags and fusion partners are left off. A change or cut given only in a name is not applied to a line headed by its entry.
UniProt Q9P2K8: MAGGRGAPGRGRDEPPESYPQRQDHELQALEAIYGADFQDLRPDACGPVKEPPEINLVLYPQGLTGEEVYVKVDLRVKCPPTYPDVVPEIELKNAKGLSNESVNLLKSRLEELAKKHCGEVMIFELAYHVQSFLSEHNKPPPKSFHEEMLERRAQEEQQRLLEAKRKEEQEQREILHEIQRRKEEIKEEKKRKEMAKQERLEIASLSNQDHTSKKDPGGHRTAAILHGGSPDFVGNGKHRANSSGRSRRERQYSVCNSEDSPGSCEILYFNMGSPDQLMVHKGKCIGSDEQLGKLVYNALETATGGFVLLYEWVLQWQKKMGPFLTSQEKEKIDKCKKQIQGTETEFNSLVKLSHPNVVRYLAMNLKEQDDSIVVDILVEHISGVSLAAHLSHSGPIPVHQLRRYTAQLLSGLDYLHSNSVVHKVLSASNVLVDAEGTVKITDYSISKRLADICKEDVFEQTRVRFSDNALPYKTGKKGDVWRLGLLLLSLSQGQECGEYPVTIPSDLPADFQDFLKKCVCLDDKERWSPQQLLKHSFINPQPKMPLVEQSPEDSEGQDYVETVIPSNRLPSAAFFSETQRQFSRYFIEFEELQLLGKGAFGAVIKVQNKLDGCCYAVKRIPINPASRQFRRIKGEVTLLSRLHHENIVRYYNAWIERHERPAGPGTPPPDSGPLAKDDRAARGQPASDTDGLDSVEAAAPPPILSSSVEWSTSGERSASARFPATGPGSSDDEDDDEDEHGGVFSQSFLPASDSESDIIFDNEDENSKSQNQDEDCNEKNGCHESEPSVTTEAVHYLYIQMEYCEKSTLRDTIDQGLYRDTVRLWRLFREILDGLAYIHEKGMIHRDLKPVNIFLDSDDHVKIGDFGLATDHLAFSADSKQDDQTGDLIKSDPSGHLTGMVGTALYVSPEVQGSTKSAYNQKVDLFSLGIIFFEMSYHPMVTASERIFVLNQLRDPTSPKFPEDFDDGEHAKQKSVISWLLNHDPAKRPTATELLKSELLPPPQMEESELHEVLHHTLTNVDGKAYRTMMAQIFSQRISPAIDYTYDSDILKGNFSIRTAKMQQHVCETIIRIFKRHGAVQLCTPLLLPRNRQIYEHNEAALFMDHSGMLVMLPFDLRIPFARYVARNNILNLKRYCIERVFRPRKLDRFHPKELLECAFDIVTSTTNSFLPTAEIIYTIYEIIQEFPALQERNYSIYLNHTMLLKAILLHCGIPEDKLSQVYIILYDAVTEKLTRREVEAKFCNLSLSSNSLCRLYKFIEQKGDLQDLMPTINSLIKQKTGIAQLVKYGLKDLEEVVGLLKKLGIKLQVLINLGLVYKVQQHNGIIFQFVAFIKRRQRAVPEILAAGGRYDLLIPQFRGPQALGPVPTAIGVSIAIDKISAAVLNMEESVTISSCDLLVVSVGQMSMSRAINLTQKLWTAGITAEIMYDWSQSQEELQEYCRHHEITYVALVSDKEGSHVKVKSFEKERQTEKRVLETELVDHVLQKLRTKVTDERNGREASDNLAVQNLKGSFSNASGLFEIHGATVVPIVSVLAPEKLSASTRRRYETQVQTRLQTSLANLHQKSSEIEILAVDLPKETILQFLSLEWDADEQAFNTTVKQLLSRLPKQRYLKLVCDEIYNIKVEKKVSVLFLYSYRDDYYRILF

Target: GCN2 (Homo sapiens, UniProt Q9P2K8)
Assay: Eurofins KinaseProfiler in vitro
Format: biochemical

With `CCOc1cc2ncc(C#N)c(Nc3ccc(OCc4ccccn4)c(Cl)c3)c2cc1NC(=O)/C=C/CN(C)C` [neratinib] the IC50 was 507 nM.
